The source of these data is ChEMBL document CHEMBL3259737, “Lead optimization studies of cinnamic amide EP2 antagonists” (J Med Chem, 2014).

What is called kinetic solubility is solubility judged after dilution from a stock solution rather than from solid.

Values after ≈ are worked out from the molar mass of the structure shown.

This data set in a line: physchem. The following applies: buffer, pH 7.4.

Regarding `COc1cc(/C=C/C(=O)NCCn2c(C(F)(F)F)cc3ccccc32)cc(OC)c1OC`, the solubility (kinetic) worked out at 27 µM (≈ 12.1 µg/mL).
